# Counter-ions that a name gives are not always drawn.
# System: Drosophila larvae expressing wild-type TDP-43 in motor neurons
# Assay: Drug screen: rescue of lethality caused by wild-type TDP-43 expression in motor neurons (D42 Gal4)
# Conditions: transgene WT2
SMILES,Preliminary rescue result: adults with normal wings (50 μM in fly food),Preliminary rescue result: adults with normal wings (30 μM in fly food) [Adult Normal Wings Adults]
CC(=O)c1ccc(S(=O)(=O)NC(=O)NC2CCCCC2)cc1 [Acetohexamide],1 Adult Normal Wings Adults,–
CCCCC1C(=O)N(c2ccccc2)N(c2ccc(O)cc2)C1=O (stereo not shown) [Oxphenbutazone],–,1
COC1=C(OC)C(=O)C(CCCCCCCCCCO)=C(C)C1=O [Idebenone],3 Adults Normal Wings,–
CC(CN(C)C)C(C)(O)Cc1ccc(Cl)cc1 (stereo not shown) [Clobutinol HCl],2 Adults Normal Wings,–
